Measured values published in paper PMC6728052 (2019).

Molecular target: human Vascular-Endothelial Growth Factor (VEGF) (Homo sapiens, UniProt P15692-4)
Assay: SPR

- Kd: 0.27 nM
- koff: 6e-05 s⁻¹
- kon: 230000 M⁻¹ s⁻¹
B1: anti-VEGF synthetic antibody G6, Fab (Fab, V domains shown)
VH: EVQLVESGGGLVQPGGSLRLSCAASGFTISDYWIHWVRQAPGKGLEWVAGITPAGGYTYYADSVKGRFTISADTSKNTAYLQMNSLRAEDTAVYYCARFVFFLPYAMDYWGQGTLVTVSS
VL: DIQMTQSPSSLSASVGDRVTITCRASQDVSTAVAWYQQKPGKAPKLLIYSASFLYSGVPSRFSGSGSGTDFTLTISSLQPEDFATYYCQQSYTTPPTFGQGTKVEIK
